This test deals with MCR-3 (Homo sapiens, UniProt P41968). In words: Melanocortin receptor binding assay, competition with 125I-HP 467, HEK 293 cells expressing hMCR-3. The note with it: read-out: MC-3 IC50; binding to MCR-3, HEK 293 cells. The text has this:
All cell culture media and reagents were obtained from GibcoBRL (Gaithersburg Md.), except for COSMIC CALF SERUM (HyClone; Logan Utah). HEK-293 cell lines were transfected with the human MC receptors hMCR-1, hMCR-3, and hMCR-4 (Gantz et al., Biochem. Biophys. Res. Comm. 200:1214-1220 (1994); Gantz et al., J. Biol. Chem. 268:8246-8250 (1993); Gantz et al. J. Biol. Chem. 268:15174-15179 (1993); Haskell-Leuvano et al., Biochem. Biophys. Res. Comm. 204:1137-1142 (1994); each of which is incorporated herein by reference). […]
GF/B filter plates were prepared by soaking for at least one hour in 5 mg/ml BSA and 10 mM CaCl2. […] Filter plates were counted using a Packard Topcount (Packard Instrument Co.) and data analyzed using GraphPad PRISM v2.0 (GraphPad Software Inc.; San Diego Calif.) and Microsoft EXCEL v5.0a (Microsoft Corp.; Redmond Wash.).
To assay isoquinoline compounds, binding assays were performed in duplicate in a 96 well format. […] Cells were harvested on GF/B filter plates as described above and counted. […]

Amino acid sequences for entries named in this document (tags omitted).
UniProt P41968, whole entry: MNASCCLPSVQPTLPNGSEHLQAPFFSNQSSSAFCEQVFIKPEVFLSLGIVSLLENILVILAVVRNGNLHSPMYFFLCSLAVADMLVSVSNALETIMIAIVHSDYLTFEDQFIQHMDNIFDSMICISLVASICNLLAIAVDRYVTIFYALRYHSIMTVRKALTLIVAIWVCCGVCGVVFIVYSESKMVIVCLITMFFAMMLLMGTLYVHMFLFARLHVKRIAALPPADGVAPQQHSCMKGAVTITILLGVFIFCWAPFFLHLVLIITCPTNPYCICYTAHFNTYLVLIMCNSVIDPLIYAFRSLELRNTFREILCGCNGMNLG

The structures appear in SMILES notation. pIC50: −log10 of the molar value.

The source of these data is patent publication US6608082B1, “Treatment of erectile dysfunction using isoquinoline compound melanocortin receptor ligands” (Lion Bioscience AG, priority 1998, dated 2003).

For `CCNc1ccc(C2C(CNCc3ccccc3O)c3ccccc3CN2CCCC[C@@H](CN)NC)cc1` (stereo partly shown), the pIC50 is under 5.00.
